## scFv variants of Ab-14 (heavy chain) against a SARS-CoV-2 spike peptide

Binding partner: SARS-CoV-2 spike HR2 peptide, sequence PDVDLGDISGINAS.

The variants keep the light chain, the linker and the frameworks of Ab-14 (scFv order VH, three GGGGS repeats, VL).
VH: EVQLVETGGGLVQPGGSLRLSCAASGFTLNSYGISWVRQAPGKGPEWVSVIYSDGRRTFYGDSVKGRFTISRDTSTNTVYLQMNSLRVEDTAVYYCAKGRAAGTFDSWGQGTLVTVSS
VL: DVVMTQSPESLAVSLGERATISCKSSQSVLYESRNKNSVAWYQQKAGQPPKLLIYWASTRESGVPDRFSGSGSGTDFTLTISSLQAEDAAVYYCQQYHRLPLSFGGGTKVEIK

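The starting antibody came from a phage panning campaign against this peptide. This is the validation round: designs drawn from the data on random variants, tested in the same kind of assay. Their group label is 14H_En_Gen (En: ensemble of fine-tuned language models; Gen: genetic algorithm). The scFvs were displayed on barcoded MATa yeast, the peptide on MATalpha yeast. Binding brings cells together so that they mate, and sequencing counts the barcode pairs among the diploids. Read counts were normalised to the haploid input and turned into Kd by a linear fit to BCL2-family pairs of known affinity, for each replicate. Mating was done six times.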

Each variant is given by its three heavy chain CDRs, as the data file delimits them; those of the parent are GFTLNSYGIS, VIYSDGRRTFYGDSVK, GRAAGTFDS. The read-out is the apparent dissociation constant on a log10 scale (nM): the lower, the stronger. Averages over replicates are reported, and they cover detected replicates only. An entry "n.d." has no value in the source: the pair was not observed among the diploids in that replicate. This suggests poor binding but is not conclusive.

| CDR-H1 | CDR-H2 | CDR-H3 | log10 Kd, replicates | log10 Kd (nM), mean | control signals |
|---|---|---|---|---|---|
| GFDLNEYGIS | VIYADGMRTAYVDDVK | GENAGTFDV | -0.06 -0.03 -0.07 -0.22 0.98 0.66 | 0.21 | 0/18 |
| GFDLNEYGIS | VIYADGVRTFYADDVK | GENAGTFDV | 0.60 0.44 0.75 0.28 0.28 0.43 | 0.46 | 0/18 |
| GFDLNEYGIS | VIYADGVRTAYADSVK | GANAGTFDI | -0.03 -0.28 -0.31 -0.06 -0.77 -0.16 | -0.27 | 0/18 |
| GFDLNEYGIS | VIYADGMRSYYADSVK | GNVAGTFDI | -0.54 -0.29 -0.58 -0.24 -0.58 -0.48 | -0.45 | 0/18 |
| GFDLDEYGIS | VIYADGVRTAYSDSVK | GETAGTFDV | -0.12 -0.45 -0.01 -0.56 -0.20 -0.33 | -0.28 | 0/18 |
| GFDLNEYGIS | VIYADGMRTAYVDKVK | GNNAGTFDV | 1.02 0.72 0.93 0.54 0.88 0.73 | 0.80 | 0/18 |
| GFDLDEYGIS | VIYADGVRTAYADSVK | GNEAGTFDV | 0.63 0.93 1.07 0.78 0.81 1.15 | 0.90 | 1/18 (3.54) |
| GFDLDEYGIS | VIYADGMRTAYADSVK | GSNAGTFDL | -0.44 -0.28 -0.31 -0.51 -0.43 -0.29 | -0.38 | 0/18 |
| GFDLDEYGIS | VIYADGMRTAYVDNVK | GEVAGTFDV | -0.80 -0.27 -0.07 n.d. -0.03 -0.79 | -0.39 | 0/18 |
| GFDLNEYGIS | VIYADGVRTAYADSVK | GANAGTFDM | -0.37 0.21 -0.56 -0.55 -0.23 -0.66 | -0.36 | 0/18 |
| GFDLNEYGIS | VIYADGRRTAYSDSVK | GEVAGTFDL | -0.02 -0.08 0.00 -0.50 -0.48 0.11 | -0.16 | 0/18 |
| GFDLDEYGIS | VIYADGSRTAYIDSVK | GENAGTFDV | 0.49 0.14 -0.34 -0.16 -0.14 0.10 | 0.01 | 0/18 |
| GFDLNEYGIS | VIYADGMRTAYIDSVK | GGNAGTFDV | -0.30 -0.18 -0.68 -0.67 -0.44 -0.45 | -0.45 | 0/18 |
| GFDLNEYGIS | VIYADGVRKAYADSVK | GNVAGTFDV | -0.23 0.31 n.d. n.d. -0.20 -0.65 | -0.19 | 0/18 |
| GFDLNEYGIS | VIYADGLRTAYADSVK | GNQAGTFDV | -0.96 0.82 -1.22 -0.40 -1.13 -0.96 | -0.64 | 0/18 |
| GFDLNEYGIS | VIYADGVRTAYADSVK | GTVAGTFDL | -0.46 -0.26 -0.45 -0.27 -0.68 -0.58 | -0.45 | 0/18 |
| GFDLNEYGIS | VIYADGMRTFYADKVK | GNVAGTFDV | -0.32 -0.59 -0.48 -0.95 -0.82 -0.37 | -0.59 | 0/18 |
| GFDLNEYGIS | VIYADGSRTAYADKVK | GNVAGTFDV | -1.00 -1.11 -0.64 -0.96 -1.20 -0.74 | -0.94 | 0/18 |
| GFDLDEYGIS | VIYADGVRTAYTDSVK | GENAGTFDL | -0.17 -0.08 -0.20 -0.20 -0.46 -0.29 | -0.23 | 0/18 |
| GFDLDEYGIS | VIYADGRRTAYADDVK | GNVAGTFDI | -0.29 0.02 -0.91 -0.66 -0.57 -0.13 | -0.42 | 1/18 (0.79) |
| GFDLNEYGIS | VIYADGKRTAYVDSVK | GNVAGTFDV | -0.45 -0.65 -0.51 -0.70 -0.66 -0.44 | -0.57 | 0/18 |
| GFDLNEYGIS | VIYADGKRTAYADSVK | GNVAGTFNV | -0.48 -0.57 -0.63 -0.69 -0.52 -0.29 | -0.53 | 0/18 |
| GFDLNEYGIS | VIYADGVRTQYADSVK | GNVAGTFDV | -0.24 -0.30 0.10 0.35 0.41 0.05 | 0.06 | 0/18 |
| GFDLDEYGIS | VIYADGSRTAYVDSVK | GENAGTFDV | 0.21 n.d. n.d. n.d. n.d. n.d. | 0.21 | 0/18 |
| GFDLEEYGIS | VIYADGRRTAYTDSVK | GNVAGTFDV | -0.41 -0.25 -0.68 -0.59 -0.52 -0.34 | -0.47 | 0/18 |
| GFDLNEYGIS | VIYADGKRTAYADSVK | GSNAGTFDT | -0.35 -0.42 -0.66 -0.52 -0.50 -0.20 | -0.44 | 0/18 |
| GFDLNEYGIS | VIYADGMRTYYADDVK | GNNAGTFDV | -0.58 0.40 -0.76 -1.05 -0.47 0.03 | -0.40 | 0/18 |
| GFDLNEYGIS | VIYADGKRTAYSDSVK | GNQAGTFDM | -0.17 0.05 -0.32 -0.38 -0.17 0.03 | -0.16 | 0/18 |
| GFDLNEYGIS | VIYADGKRTAYIDSVK | GNTAGTFDQ | -0.47 -0.79 -1.33 -0.57 -1.10 -0.39 | -0.78 | 0/18 |
| GFDLNEYGIS | VIYADGQRTFYADSVK | GENAGTFDT | -0.67 -0.14 -0.51 0.27 -0.61 0.10 | -0.26 | 0/18 |

A selection of 2 entries from above:

| CDR-H1 | CDR-H2 | CDR-H3 | log10 Kd, replicates | log10 Kd (nM), mean | control signals |
|---|---|---|---|---|---|
| GFDLNEYGIS | VIYADGLRTAYADSVK | GNQAGTFDV | -0.96 0.82 -1.22 -0.40 -1.13 -0.96 | -0.64 | 0/18 |
| GFDLNEYGIS | VIYADGMRTYYADDVK | GNNAGTFDV | -0.58 0.40 -0.76 -1.05 -0.47 0.03 | -0.40 | 0/18 |

The authors' rule: three or more of the six replicates give a measured affinity, fewer mean a poor binder. Background: pairings of all heavy chain designs with three empty control strains gave a value in 1% of cases (median 2.08, 5th percentile 0.84). Values in that range, when seen in few replicates, are hard to tell from nonspecific mating. Also given: how often the same scFv was detected with the empty control strains, with their mean in brackets. Of ten entries with the parent sequence, four were seen in most replicates (averages 0.34 to 2.37), three in one and three in none, so single entries are noisy. The range of this assay differs from that of the first round, and the authors advise against merging the two.

Source: Li et al. 2023 (doi:10.1038/s41467-023-39022-2), MIT Lincoln Laboratory and A-Alpha Bio; data file from the FLAb repository.